Experimental data published in patent US10172915B2, “Methods and compositions for activation of sirtuins with Annexin A1 peptides” (Duke University, priority 2013, dated 2019).

Tested on: adult rat ventricular cardiomyocytes (ARVCs)
Assay: Long-term culture of ARVCs with repeat 800 μM peptide (cytotoxicity, lifespan)
Details: media and agents changed every 3 days

With Ac-Gln-Ala-Trp [ANXA1sp] the “Time for which >50% of ARVCs keep rod-shape morphology” value was “more than 120 days” and the “Share of ARVCs that keep rod-shape morphology” value (for more than 120 days) was greater than 50%.
